# Data reported in PubChem BioAssay AID593 (National Center for Advancing Translational Sciences (NCATS), 2007).
# The entries are a selection whose mix differs from that of the whole data set. Some tests of the compounds listed are not included; inactive here does not mean inactive elsewhere. Inconclusive results are not listed. The source made the active and inactive calls. Cut-off read from the data, not from the text of the source: active = max fluorescein-equivalent concentration above about 10 nM; inconclusive = between about 1.1 nM and that limit; inactive = weaker than that.
# Experiment: qHTS Assay for Spectroscopic Profiling in Fluorescein Spectral Region
# Details: Compound autofluorescence, 480/540 nm, fluorescein-equivalent
# Excerpt: NIH Molecular Libraries Screening Centers Network [MLSCN]
# NIH Chemical Genomics Center [NCGC]
# Occasionally, the artifactual effect may originate from the compound's own spectral or other biophysical properties which generally tend to track its assay concentration. Pre-screening/profiling the library with respect to the compounds' spectral properties should help one exclude false positives early on. While the most informative fluorescent profiling data set is obtained by performing a full excitation and emission scan of each well by using a monochromator-based plate reader, such an approach is practical only on a very limited scale as scanning each well requires long time. An alternative approach, applied here, is to perform plate reader scans using selected excitation and emission wavelength pairs to generate a multidimensional relational database that correlates compound concentration and the respective relative fluorescence intensity at a given wavelength set. A standard curve of fluorescein present on each plate as six-point concentration series, was used to compute a normalized fluorescence response, termed dye-equivalent concentration, for each compound at each concentration.
# NCGC Assay Protocol Summary:
# 100 mM Tris buffer, pH 8.0
# The wells in columns 1 through 4 of a Kalypsys polypropylene 1536-well compound plate were filled with standard solutions of fluorophore corresponding to the spectral region of interest. Solutions of Fluorescein were placed in the following wells: Q1, R1: 3 mM, Q2, R2: 300 uM, Q3, R3: 30 uM, Q4, R4: zero (DMSO), S1, T1: 3 uM, S2, T2: 900 nM, S3, T3: 300 nM, S4, T4: zero (DMSO).
# Six uL of buffer were dispensed to 1536-well Greiner black plates. Compounds and dye standards (23 nL) were transferred via Kalypsys PinTool. The plates were incubated for 15 min at room temperature, and then read on ViewLux (Perkin-Elmer) High-throughput CCD imager using 480 nm and 540 nm excitation and emission filter set.
# Keywords: NIH Roadmap, MLSCN, MLI, MLSMR, qHTS, NCGC, Fluorescein, Fluorescent Profiling.
row,Compound,outcome
1,CN(C)c1cccc(C(=O)NCC2(N(C)C)CCCCC2)c1,inactive
2,CN1CC[C@H](OC(=O)[C@](O)(c2ccccc2)C2CCCC2)C1,inactive
3,CN1CCC[C@H](OC(=O)[C@](O)(c2ccccc2)C2CCCC2)C1,inactive
